Test results: publication PMC9751974 (Frontiers in Microbiology, 2022)
In brackets after ≈: the same amount, converted by molar mass.

Test system: E. coli ATCC25922
Conditions: LB broth, 1 × 10^5 CFU/mL, 37°C, 16–24 h, triplicate
Method: The MIC values of peptides against E. coli ATCC25922 were determined by the microtiter broth dilution method. The bacteria were grown to the mid-logarithmic phase and diluted into the Luria-Bertani (LB) broth at 1 × 10^5 CFU/mL. […] Polymyxin and the sterile aqua distillate were tested as control. All assays were performed in triplicate.

Work on CC[C@H](C)[C@H](NC(=O)[C@H](CCCNC(=N)N)NC(=O)[C@@H](NC(=O)[C@H](C)NC(=O)[C@@H](NC(=O)[C@@H](NC(=O)[C@H](CC(C)C)NC(=O)[C@H](CCCNC(=N)N)NC(=O)[C@@H](N)C(C)C)[C@@H](C)CC)C(C)C)C(C)C)C(=O)N[C@@H](Cc1c[nH]c2ccccc12)C(=O)N[C@@H](CCCNC(=N)N)C(=O)N[C@@H](CCCNC(=N)N)C(N)=O [IDR-1018] yielded an MIC of 8 µg/mL (≈ 5.21 µM).
